In ChEMBL document CHEMBL2010707, “In silico discovery and biophysical evaluation of novel 5-(2-hydroxybenzylidene) rhodanine inhibitors of DNA gyrase B” (Bioorg Med Chem, 2012):

System: Staphylococcus aureus
Settings: ATCC 29213

GENTAMICIN was tested, and the MIC was 0.5 µg/mL.
